This experiment deals with Dopamine receptors; D2 & D4 (Homo sapiens) (UniProt P14416+P21917). Kind of experiment: Selectivity for human dopamine D4 receptor over dopamine D2(short) receptor. Format: protein assay.

Amino acid sequences for entries named in this document (tags omitted).
UniProt P14416, whole entry, looked up: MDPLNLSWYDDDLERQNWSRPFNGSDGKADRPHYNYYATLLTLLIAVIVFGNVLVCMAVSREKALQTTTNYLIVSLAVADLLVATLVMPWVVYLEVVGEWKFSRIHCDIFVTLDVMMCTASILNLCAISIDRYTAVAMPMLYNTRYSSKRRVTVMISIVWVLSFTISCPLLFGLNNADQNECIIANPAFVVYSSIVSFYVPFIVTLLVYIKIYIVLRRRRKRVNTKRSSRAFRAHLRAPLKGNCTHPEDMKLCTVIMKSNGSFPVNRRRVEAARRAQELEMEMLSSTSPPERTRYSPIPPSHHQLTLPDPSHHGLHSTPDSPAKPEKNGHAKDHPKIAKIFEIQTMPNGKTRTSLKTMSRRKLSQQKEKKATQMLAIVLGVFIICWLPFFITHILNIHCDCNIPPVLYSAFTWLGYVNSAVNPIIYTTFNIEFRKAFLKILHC
UniProt P21917, whole entry, looked up: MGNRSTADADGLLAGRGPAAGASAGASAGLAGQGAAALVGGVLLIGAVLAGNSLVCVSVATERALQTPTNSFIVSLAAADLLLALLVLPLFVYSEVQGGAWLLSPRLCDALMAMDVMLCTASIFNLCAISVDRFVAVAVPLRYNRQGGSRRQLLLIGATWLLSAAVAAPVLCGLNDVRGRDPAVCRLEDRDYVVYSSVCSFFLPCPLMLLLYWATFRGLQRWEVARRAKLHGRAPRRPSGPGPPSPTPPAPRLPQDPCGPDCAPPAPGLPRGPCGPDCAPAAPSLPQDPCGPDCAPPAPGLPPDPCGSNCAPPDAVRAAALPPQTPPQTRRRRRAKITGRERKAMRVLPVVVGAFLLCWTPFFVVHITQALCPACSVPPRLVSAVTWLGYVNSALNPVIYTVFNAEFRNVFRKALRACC

As to `COc1ccccc1N1CCN(Cc2cn3c(-n4cccn4)cccc3n2)CC1`, the Selectivity ratio is 300.
For `COc1ccccc1N1CCN(Cc2cn3cc(C)cc(-c4ccccc4)c3n2)CC1` the value was 33.

Source of the values: ChEMBL document CHEMBL1138042, “2-[(4-phenylpiperazin-1-yl)methyl]imidazo(di)azines as selective D4-ligands. Induction of penile erection by 2-[4-(2-methoxyphenyl)piperazin-1-ylmethyl]imidazo[1,2-a]pyridine (PIP3EA), a potent and selective D4 partial agonist” (J Med Chem, 2006).
